The text below walks through data of patent US12378251B2, “Triazolopyrimidine compound and salt, composition and use thereof” (SHANGHAI INSTITUTE OF MATERIA MEDICA, CHINESE ACADEMY OF …, priority 2019, dated 2025).

Amino acid sequences for entries named in this document (tags omitted).
UniProt Q8TBC4, whole entry: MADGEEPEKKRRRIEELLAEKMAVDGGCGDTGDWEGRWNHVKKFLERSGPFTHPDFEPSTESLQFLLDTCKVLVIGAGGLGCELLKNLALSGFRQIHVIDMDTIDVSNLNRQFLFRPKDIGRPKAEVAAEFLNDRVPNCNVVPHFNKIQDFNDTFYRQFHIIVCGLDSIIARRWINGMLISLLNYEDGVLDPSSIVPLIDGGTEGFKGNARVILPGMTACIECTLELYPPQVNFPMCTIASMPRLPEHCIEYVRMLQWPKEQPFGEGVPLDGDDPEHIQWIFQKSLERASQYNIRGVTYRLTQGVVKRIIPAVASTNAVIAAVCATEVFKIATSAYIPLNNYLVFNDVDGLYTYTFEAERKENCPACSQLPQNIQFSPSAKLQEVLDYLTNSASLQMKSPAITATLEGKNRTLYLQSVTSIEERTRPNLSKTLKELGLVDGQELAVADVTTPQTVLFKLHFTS
UniProt Q13564, whole entry partner: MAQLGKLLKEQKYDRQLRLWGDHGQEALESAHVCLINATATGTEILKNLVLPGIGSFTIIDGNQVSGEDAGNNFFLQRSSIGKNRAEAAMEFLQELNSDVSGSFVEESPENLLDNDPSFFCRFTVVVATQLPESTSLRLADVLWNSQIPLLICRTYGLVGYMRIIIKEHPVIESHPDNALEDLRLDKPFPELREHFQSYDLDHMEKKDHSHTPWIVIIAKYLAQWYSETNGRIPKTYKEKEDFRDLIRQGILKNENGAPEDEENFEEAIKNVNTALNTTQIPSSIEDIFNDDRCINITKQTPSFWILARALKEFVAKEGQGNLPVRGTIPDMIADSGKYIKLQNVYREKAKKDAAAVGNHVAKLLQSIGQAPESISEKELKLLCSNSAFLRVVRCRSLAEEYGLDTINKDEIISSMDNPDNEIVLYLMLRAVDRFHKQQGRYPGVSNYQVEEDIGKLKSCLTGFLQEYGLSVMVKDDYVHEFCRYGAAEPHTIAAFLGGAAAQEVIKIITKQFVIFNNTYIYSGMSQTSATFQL

pIC50: −log10 of the molar value.

In assay [1] the test system is human colon cancer cells HCT-116. Put plainly: Inhibition of proliferation of HCT-116 cells (SRB method). Type of assay: cell-based. The following applies: read-out: HCT-116 IC50*, 72 h. On the procedure: The inhibitory effects of the compounds on the proliferation of human colon cancer cells HCT-116 were detected by a sulforodamine B (SRB) method. The specific steps were as follows: HCT-116 cells in the logarithmic phase were seeded into a 96-well culture plate at a suitable density with 90 μL per well. After overnight cultivation, the compounds at different concentrations were added to act for 72 h, and a solvent control group (negative control) was set. After 72 h of the compounds acting on the cells, the effects of the compounds on cell proliferation were detected using the SRB method as follows. The culture solution was discarded, and 100 μL/well of 10% trichloroacetic acid (TCA) pre-cooled at 4° C. was added, fixed at 4° C. for 1 h, then washed with distilled water for 5 times, and naturally dried in the air; 100 μL/well of SRB (4 mg/ml) solution prepared by 1% glacial acetic acid was added, stained at room temperature for 15 minutes; the supernatant was removed, washed with 1% acetic acid for 5 times, and air dried; 150 μl/well of Tris (10 mM) solution was added, then left at room temperature for 15 minutes; finally, a full-wavelength microplate enzyme-labeled instrument SpectraMax 190 was used to read with a measurement wavelength of 560 nm. The inhibition rate (%) of the compound on tumor cell growth was calculated by the following formula: [formula]
Background: Sulforhodamine B stains cellular protein and so reports cell mass.

In assay [2] the target is NAE enzyme (human recombinant APPBP1/UBA3) (Homo sapiens (Human), UniProt Q8TBC4). The assay is described as follows: Inhibition of NAE enzyme activity at the molecular level (HTRF). Type of assay: biochemical. The following applies: inhibition rate of NAE enzyme activity at 10 μM compound. (TR-FRET usually uses a lanthanide donor and a delayed reading to cut background.)

As to `CO[C@H]1Cc2ccccc2[C@H]1Nc1ncnc2c1nnn2C1CC(O)C(COS(N)(=O)=O)C1` (some centres unmarked), in assay [1], the pIC50 (commonly the IC50 on a negative log10 scale, so that one unit is a factor of ten) was over 8.00. In addition, the “IR (10 μM)” value in assay [2] is given as 98.3%.

Consider `COCC(=O)N[C@@H]1Cc2ccccc2[C@H]1Nc1ncnc2c1nnn2C1CC(O)C(COS(N)(=O)=O)C1` (some centres unmarked), for which the pIC50 in assay [1] was under 4.00. The “IR (10 μM)” value in assay [2] was determined as 0.84%.

As for `CC(C)(C)OC(=O)N1CCC2(CC1)C[C@H](Nc1ncnc3c1nnn3C1CC(O)C(COS(N)(=O)=O)C1)c1ccccc12` (some centres unmarked), the pIC50 in assay [1] was over 8.00. In assay [2], the “IR (10 μM)” value amounted to 96.0%.

Turning to `COCC(=O)N[C@H]1Cc2ccccc2[C@H]1Nc1ncnc2c1nnn2C1CC(O)C(COS(N)(=O)=O)C1` (some centres unmarked), the negative-log IC50 (pIC50) in assay [1] is under 4.00. For the same molecule, in assay [2], the “IR (10 μM)” value is 85.0%.
